# OPERA 2.9 data: properties

Data: OPERA 2.9 data sets, kmansouri/OPERA on GitHub.

The melting point is given in degrees Celsius. Boiling points are in °C, nominally at 760 mmHg. The octanol-water partition coefficient is given as log10; larger values mean a more lipophilic compound. Water solubility is log10 of mol/L, nominally at 25 °C; higher is more soluble. Vapor pressures (log10 mmHg) refer to near room temperature, 15 to 30 °C; higher is more volatile. Henry's law constant (air-water partitioning) is log10 of atm·m3/mol, nominally at 25 °C. fu is the fraction unbound in human plasma, from 0 to 1. Clint is human hepatic intrinsic clearance in µL/min per million cells; 0 means that no clearance was seen. "–" marks a cell with nothing listed here.

- O=C1CC[C@H]2CO[C@@H]1O2 [(1S,5R)-6,8-Dioxabicyclo[3.2.1]octan-4-one]: boiling point 226.9 °C; log VP -0.678 (log10 mmHg)
- CCCC(=O)OCCC(C)C [Isopentyl butyrate]: log Kow 3.99; log S -2.933 (log10 mol/L)
- O=C1CSC(=O)N1 [Thiazolidinedione]: log Kow -0.29; log VP -5.722 (log10 mmHg)
- CCCCOCCCN [1-Propanamine, 3-butoxy-]: log Kow 1.05; log VP -0.014 (log10 mmHg)
- Nc1ccc(/N=N/c2c(N)ccc3cc(S(=O)(=O)[O-])cc(O)c23)c(S(=O)(=O)[O-])c1.[Na+].[Na+]: MP 242 °C; log Kow -2.48
- COC1(OC)CCC2=C(CC[C@@H]3[C@@H]2CC[C@]2(C)C(=O)CC[C@@H]32)C1 [3,3-Dimethoxyestr-5(10)-en-17-one]: MP 115.2 °C; log Kow 4.04; log S -4.042 (log10 mol/L); log VP -7.453 (log10 mmHg)
- CSCCC=O [3-(Methylthio)propanal]: log Kow -0.16; log S 0.194 (log10 mol/L)
- IC[C@H]1CC[C@H](CI)CC1 [trans-1,4-Bis(iodomethyl)cyclohexane]: MP 75 °C; boiling point 248 °C; log Kow 5.8; log S -5.748 (log10 mol/L); log VP -5.576 (log10 mmHg)
- CCC1(CO)COC1 [3-Oxetanemethanol, 3-ethyl-]: MP -49.15 °C; log Kow 0.6
- Cc1ccc(S(=O)(=O)NC(=O)NN2CCCCCC2)cc1 [Tolazamide]: plasma fu 0.0475; Clint 0 µL/min/10^6 cells
- C=CC(=O)OCCCCOC(=O)Oc1ccc(C(=O)Oc2ccc(OC(=O)c3ccc(OC(=O)OCCCCOC(=O)C=C)cc3)c(C)c2)cc1: MP 60.7 °C; log Kow 5.8; log S -6.371 (log10 mol/L)
- CC1(C)S[C@@H]2[C@H](NC(=O)[C@H](NC(=O)N3CCN(S(C)(=O)=O)C3=O)c3ccccc3)C(=O)N2[C@H]1C(=O)O [Mezlocillin]: log S -3.059 (log10 mol/L); plasma fu 0.695
- CON=C(Cc1cccnc1)c1ccc(Cl)cc1Cl [Pyrifenox]: boiling point 212 °C; log S -3.141 (log10 mol/L); Henry's law constant -7.242 (log10 atm·m3/mol)
- CCC(C)C1CCCc2cccnc21 (stereo not drawn) [8-sec-Butyl-5,6,7,8-tetrahydroquinoline]: boiling point 276 °C; log S -3.438 (log10 mol/L); log VP -2.34 (log10 mmHg)
- O=C(NO)C1(NS(=O)(=O)c2ccc(Oc3ccc(F)cc3)cc2)CCOCC1: plasma fu 0.145; Clint 2.27 µL/min/10^6 cells
- CC1(C)CC[C@H]2O[C@]23C(C)(C)[C@H]2CC[C@@]13C2: MP -1 °C; log VP -1.965 (log10 mmHg)
- COC(=O)c1ccc(I)cc1S(=O)(=O)[N-]C(=O)Nc1nc(C)nc(OC)n1.[Na+] [Iodosulfuron methyl ester sodium salt]: MP 150 °C; log VP -10.3 (log10 mmHg)
- N#Cc1ccc(SCCCS(=O)(=O)[O-])cc1C#N.[Li+]: MP 237.9 °C; log Kow -2.32

The last 3 entries again:

structure (SMILES)	name	MP (°C)	boiling point (°C)	log Kow	log S (log10 mol/L)	log VP (log10 mmHg)	Henry's law constant (log10 atm·m3/mol)	plasma fu	Clint (µL/min/10^6 cells)
CC1(C)CC[C@H]2O[C@]23C(C)(C)[C@H]2CC[C@@]13C2	–	-1	–	–	–	-1.965	–	–	–
COC(=O)c1ccc(I)cc1S(=O)(=O)[N-]C(=O)Nc1nc(C)nc(OC)n1.[Na+]	Iodosulfuron methyl ester sodium salt	150	–	–	–	-10.3	–	–	–
N#Cc1ccc(SCCCS(=O)(=O)[O-])cc1C#N.[Li+]	–	237.9	–	-2.32	–	–	–	–	–

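The numbers are reported measurements, compiled and curated for the OPERA QSAR suite. The files give a single number for a compound and property, which may rest on several reports. Method, purity and exact conditions of the single measurements are not given. Where a salt, mixture or single isomer is drawn, the source does not say that exactly this form was tested. Some entries may be limits or estimates that an upstream database listed as plain numbers.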